The numbers were not newly measured in US10610591B2, “Light responsive quantum dot drug delivery system” (Nanoco Technologies Ltd., priority 2017, dated 2020), which cites them from elsewhere.

Molecules are shown by their SMILES. Only a part of the results on these compounds is given; other tests are left out.

For the series the following is noted: octanol/water; cited from earlier work.

With `CCC(=O)N(c1ccccc1)C1CCN(CCc2ccccc2)CC1`, the log P (log Po/w, log Poct/wat, log Pexp) was 4.05.
